Data: US10053431B2, “Tetrahydro-benzodiazepinones” (priority 2013, dated 2018)
Structures can show the parent of a compound that is named as a salt. Where two headings read alike, the source gives them in different places.

By UniProt entry, the sequences of proteins in these tests, tags left out. Chains listed by the source or under a name are the forms on record and can include a tag or linker. Residues count along the entry.
UniProt P98170, 124-240 with tags or gaps C202A/C213G limits assumed: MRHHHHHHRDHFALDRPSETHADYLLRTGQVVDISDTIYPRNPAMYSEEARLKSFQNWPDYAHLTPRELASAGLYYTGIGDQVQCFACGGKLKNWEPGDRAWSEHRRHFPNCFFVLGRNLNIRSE
UniProt P98170, 241-356 with tags or gaps limits assumed: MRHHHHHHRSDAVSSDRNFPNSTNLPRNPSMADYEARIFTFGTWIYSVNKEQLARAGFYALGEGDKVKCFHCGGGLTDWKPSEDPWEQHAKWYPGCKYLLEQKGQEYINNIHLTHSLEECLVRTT

Tests used:
BIR2 domain of XIAP = BIR2 domain of XIAP (Homo sapiens (Human), UniProt P98170, C202A/C213G); test: TR-FRET assay for BIR2 (inhibition of binding of XIAP BIR2 domain to SMAC-derived Peptide A); settings: 6x His-tagged BIR2 domain (aa 124-240 of XIAP) 10 nM, Peptide A 20 nM
BIR3 domain of XIAP = BIR3 domain of XIAP (Homo sapiens (Human), UniProt P98170); test: TR-FRET assay for BIR3 (inhibition of binding of XIAP BIR3 domain to SMAC-derived Peptide A); settings: read-out: IC50 BIR3
[1] = 6x His-tagged BIR3 domain (aa 241-356 of XIAP) 10 nM, Peptide A 20 nM, TR-FRET

SMILES	IC50 (BIR2 domain of XIAP) [nM]	IC50 (BIR3 domain of XIAP) [µM]	IC50 (BIR3 domain of XIAP; [1]) [µM]	IC50 (BIR3 domain of XIAP; 6x His-tagged BIR3 domain (aa 241-356 of XIAP) 10 nM, Peptide A 20 nM, TR-FRET, hydrochloride) [µM]
CN[C@@H](C)C(=O)N[C@H]1CN(Cc2ccccc2)c2ccccc2N(Cc2c(OC)ccc3cc(Br)ccc23)C1=O [Example 77, (S)—N—((S)-5-Benzyl-1-((6-bromo-2-methoxynaphthalen-1-yl)methyl)-2-oxo-2,3,4,5-tetrahydro-1H-benzo[b][1,4]diazepin-3-yl)-2-(methylamino)propanamide trifluoroacetate]	47	47.5	–	–
CN[C@@H](C)C(=O)N[C@H]1CN(C(=O)c2ccc(F)cc2)c2cc(C#N)ccc2N(Cc2c(OC)ccc3c(Br)cccc23)C1=O [Example 150, (S)-N-((S)-1-((5-bromo-2-methoxynaphthalen-1-yl)methyl)-7-cyano-5-(4-fluorobenzoyl)-2-oxo-2,3,4,5-tetrahydro-1H-benzo[b][1,4]diazepin-3-yl)-2-(methylamino)propanamide hydrochloride]	9.06	–	12.3	–
CN[C@@H](C)C(=O)N[C@H]1CN(S(=O)(=O)c2ccc(N)cc2)c2ccccc2N(Cc2c(C)ccc3ccccc23)C1=O [Example 117, (25)-N-[(35)-1-(4-aminophenyl)sulfonyl-5-[(2-methylnaphthalen-1-yl)methyl]-4-oxo-2,3-dihydro-1,5-benzodiazepin-3-yl]-2-(methylamino)propanamide;hydrochloride]	168	–	> 54.8	–
CN[C@@H](C)C(=O)N[C@H]1CN(C(=O)c2ccc(N)cc2)c2ccccc2N(Cc2c(OC)ccc3cc(C(=O)OC)ccc23)C1=O [Example 56, 5-[(S)-5-(4-Amino-benzoyl)-3-((S)-2-methylamino-propionylamino)-2-oxo-2,3,4,5-tetrahydro-benzo[b][1,4]diazepin-1-ylmethyl]-6-methoxy-naphthalene-2-carboxylic acid methyl ester hydrochloride]	10	38.1	–	–
CN[C@@H](C)C(=O)N[C@H]1CN(C(=O)c2ccc(F)cc2)c2cc(C#N)ccc2N(Cc2c(OC)ccc3cc(Br)ccc23)C1=O [Example 154, (S)-N-((S)-1-((6-bromo-2-methoxynaphthalen-1-yl)methyl)-7-cyano-5-(4-fluorobenzoyl)-2-oxo-2,3,4,5-tetrahydro-1H-benzo[b][1,4]diazepin-3-yl)-2-(methylamino)propanamide hydrochloride]	11.5	–	19.2	–
CN[C@@H](C)C(=O)N[C@H]1CN(C(=O)c2cccc(C(C)O)c2)c2ccccc2N(Cc2c(C)ccc3ccccc23)C1=O (stereo partly drawn) [Example 118, (2S)-N-[(3S)-1-[3-(1-hydroxyethyl)benzoyl]-5-[(2-methylnaphthalen-1-yl)methyl]-4-oxo-2,3-dihydro-1,5-benzodiazepin-3-yl]-2-(methylamino)propanamide;hydrochloride]	51.9	–	–	23.7
CN[C@@H](C)C(=O)N[C@H]1CN(C(=O)CS(C)(=O)=O)c2ccc(C#N)cc2N(Cc2nn(-c3ccccc3C#N)c3ccccc23)C1=O [Example 167, (S)-N-((S)-8-cyano-1-((1-(2-cyanophenyl)-1H-indazol-3-yl)methyl)-5-(2-(methylsulfonyl)acetyl)-2-oxo-2,3,4,5-tetrahydro-1H-benzo[b][1,4]diazepin-3-yl)-2-(methylamino)propanamide hydrochloride]	99.5	–	> 54.8	–
CN[C@@H](C)C(=O)N[C@H]1CN(S(=O)(=O)c2ccc(C(C)=O)cc2)c2ccccc2N(Cc2c(C)ccc3ccccc23)C1=O [Example 98c]	204	–	29.8	–
CN[C@@H](C)C(=O)N[C@H]1CN(C(=O)c2ccno2)c2ccccc2N(Cc2c(OC)ccc3cc(Br)ccc23)C1=O [Example 75c]	5	–	30.4	–
CN[C@@H](C)C(=O)N[C@H]1CN(C(=O)c2cccc3[nH]ccc23)c2ccccc2N(Cc2c(C)ccc3ccccc23)C1=O [Example 146, (2S)-N-[(3S)-1-(1H-indole-4-carbonyl)-5-[(2-methylnaphthalen-1-yl)methyl]-4-oxo-2,3-dihydro-1,5-benzodiazepin-3-yl]-2-(methylamino)propanamide]	16.7	–	> 54.8	–
CN[C@@H](C)C(=O)N[C@H]1CN(C(=O)c2ccc(N)cc2)c2cc(Cl)ccc2N(Cc2c(OC)ccc3cc(Br)ccc23)C1=O [Example 124, (S)-N-((S)-5-(4-aminobenzoyl)-1-((6-bromo-2-methoxynaphthalen-1-yl)methyl)-7-chloro-2-oxo-2,3,4,5-tetrahydro-1H-benzo[b][1,4]diazepin-3-yl)-2-(methylamino)propanamide hydrochloride]	5.68	–	13.1	–
CN[C@@H](C)C(=O)N[C@H]1CN(C(=O)c2ccc(C(C)=O)cc2)c2ccccc2N(CC(=O)Nc2nccs2)C1=O [Example 106, (25)-N-[(35)-1-(4-acetylbenzoyl)-4-oxo-5-[2-oxo-2-(1,3-thiazol-2-ylamino)ethyl]-2,3-dihydro-1,5-benzodiazepin-3-yl]-2-(methylamino)propanamide;2,2,2-trifluoroacetic acid]	238	–	> 51.5	–
CN[C@@H](C)C(=O)N[C@H]1CN(S(=O)(=O)c2ccc(NC(C)=O)cc2)c2ccccc2N(Cc2c(C)ccc3ccccc23)C1=O [Example 98a, (S)—N—[(S)-5-(4-Acetylamino-benzenesulfonyl)-1-(2-methyl-naphthalen-1-ylmethyl)-2-oxo-2,3,4,5-tetrahydro-1H-benzo[b][1,4]diazepin-3-yl]-2-methylamino-propionamide hydrochloride]	211	> 54.8	–	–
CN[C@@H](C)C(=O)N[C@H]1CN(C(=O)c2ccc(F)cc2)c2cc(Cl)ccc2N(Cc2c(OCC(F)(F)F)ccc3cc(Br)ccc23)C1=O [Example 136, (S)-N-((S)-1-((6-bromo-2-(2,2,2-trifluoroethoxy)naphthalen-1-yl)methyl)-7-chloro-5-(4-fluorobenzoyl)-2-oxo-2,3,4,5-tetrahydro-1H-benzo[b][1,4]diazepin-3-yl)-2-(methylamino)propanamide hydrochloride]	186	–	41.9	–
CN[C@@H](C)C(=O)N[C@H]1CN(C(=O)CCOC)c2ccccc2N(Cc2c(OC)ccc3cc(Br)ccc23)C1=O [Example 90e]	10	–	48.6	–
CN[C@@H](C)C(=O)N[C@H]1CN(C(=O)c2ccc(C(C)=O)cc2)c2ccccc2N(Cc2c(OC(F)F)ccc3ccccc23)C1=O [Example 69b]	26	–	46.6	–
CN[C@@H](C)C(=O)N[C@H]1CN(C(=O)c2ccc(C(C)O)cc2)c2ccccc2N(Cc2c(OC)ccc3cc(Br)ccc23)C1=O (stereo partly drawn) [Example 104, (2S)-N-((3S)-1-((6-bromo-2-methoxynaphthalen-1-yl)methyl)-5-(4-(1-hydroxyethyl)benzoyl)-2-oxo-2,3,4,5-tetrahydro-1H-benzo[b][1,4]diazepin-3-yl)-2-(methylamino)propanamide]	12	–	47.4	–
CN[C@@H](C)C(=O)N[C@H]1CN(C(=O)c2ccc(N)cc2)c2cc(Cl)ccc2N(Cc2c(OC)ccc3ccccc23)C1=O [Example 122, (S)-N-((S)-5-(4-aminobenzoyl)-7-chloro-1-((2-methoxynaphthalen-1-yl)methyl)-2-oxo-2,3,4,5-tetrahydro-1H-benzo[b][1,4]diazepin-3-yl)-2-(methylamino)propanamide hydrochloride]	13.2	–	26.4	–
CCN[C@@H](C)C(=O)N[C@H]1CN(C(=O)CS(C)(=O)=O)c2ccccc2N(Cc2c(OC)ccc3c(Br)cccc23)C1=O [Example 156, (S)-N-((S)-1-((5-bromo-2-methoxynaphthalen-1-yl)methyl)-5-(2-(methylsulfonyl)acetyl)-2-oxo-2,3,4,5-tetrahydro-1H-benzo[b][1,4]diazepin-3-yl)-2-(ethylamino)propanamide hydrochloride]	42.9	–	> 54.8	–
CN[C@@H](C)C(=O)N[C@H]1CN(C(=O)c2ccn(C)n2)c2ccccc2N(Cc2c(OC)ccc3cc(Br)ccc23)C1=O [Example 76e]	10	–	33.7	–
CN[C@@H](C)C(=O)N[C@H]1CN(C(=O)c2ccc(F)cc2)c2ccccc2N(Cc2c(OC)ccc3c(Br)cccc23)C1=O [Example 92, (S)—N—[(S)-1-(5-Bromo-2-methoxy-naphthalen-1-ylmethyl)-5-(4-fluoro-benzoyl)-2-oxo-2,3,4,5-tetrahydro-1H-benzo[b][1,4]diazepin-3-yl]-2-methylamino-propionamide hydrochloride]	9	13.8	–	–
CN[C@@H](C)C(=O)N[C@H]1CN(C(=O)c2ccc(C(C)=O)cc2)c2ccccc2N(Cc2c(OCC(F)(F)F)c[n+]([O-])c3ccccc23)C1=O [Example 70, 4-(((S)-5-(4-Acetylbenzoyl)-3-((S)-2-(methylamino)propanamido)-2-oxo-2,3,4,5-tetrahydro-1H-benzo[b][1,4]diazepin-1-yl)methyl)-3-(2,2,2-trifluoroethoxy)quinoline 1-oxide hydrochloride]	41	–	52.9	–
CN[C@@H](C)C(=O)N[C@H]1CN(C(=O)CS(C)(=O)=O)c2ccccc2N(Cc2c(OC)ccc3c(Br)cccc23)C1=O [Example 81, (S)—N—((S)-1-((5-Bromo-2-methoxynaphthalen-1-yl)methyl)-5-(2-(methylsulfonyl)acetyl)-2-oxo-2,3,4,5-tetrahydro-1H-benzo[b][1,4]diazepin-3-yl)-2-(methylamino)propanamide hydrochloride]	24	> 54.8	–	–
CN[C@@H](C)C(=O)N[C@H]1CN(C(=O)c2ccccn2)c2ccccc2N(Cc2c(OC)ccc3cc(Br)ccc23)C1=O [Example 89a, (S)—N—[(S)-1-(6-Bromo-2-methoxy-naphthalen-1-ylmethyl)-2-oxo-5-(pyridine-2-carbonyl)-2,3,4,5-tetrahydro-1H-benzo[b][1,4]diazepin-3-yl]-2-methylamino-propionamide hydrochloride]	6	44.5	–	–
